Assay results as given in patent publication US6596687B1, “Cell adhesion inhibitors” (Biogen, Inc., priority 1995, dated 2003).

The chains behind the UniProt entries cited, without tags or fusion partners. Residues count along the entry.
UniProt P05556, 21-798 limits assumed: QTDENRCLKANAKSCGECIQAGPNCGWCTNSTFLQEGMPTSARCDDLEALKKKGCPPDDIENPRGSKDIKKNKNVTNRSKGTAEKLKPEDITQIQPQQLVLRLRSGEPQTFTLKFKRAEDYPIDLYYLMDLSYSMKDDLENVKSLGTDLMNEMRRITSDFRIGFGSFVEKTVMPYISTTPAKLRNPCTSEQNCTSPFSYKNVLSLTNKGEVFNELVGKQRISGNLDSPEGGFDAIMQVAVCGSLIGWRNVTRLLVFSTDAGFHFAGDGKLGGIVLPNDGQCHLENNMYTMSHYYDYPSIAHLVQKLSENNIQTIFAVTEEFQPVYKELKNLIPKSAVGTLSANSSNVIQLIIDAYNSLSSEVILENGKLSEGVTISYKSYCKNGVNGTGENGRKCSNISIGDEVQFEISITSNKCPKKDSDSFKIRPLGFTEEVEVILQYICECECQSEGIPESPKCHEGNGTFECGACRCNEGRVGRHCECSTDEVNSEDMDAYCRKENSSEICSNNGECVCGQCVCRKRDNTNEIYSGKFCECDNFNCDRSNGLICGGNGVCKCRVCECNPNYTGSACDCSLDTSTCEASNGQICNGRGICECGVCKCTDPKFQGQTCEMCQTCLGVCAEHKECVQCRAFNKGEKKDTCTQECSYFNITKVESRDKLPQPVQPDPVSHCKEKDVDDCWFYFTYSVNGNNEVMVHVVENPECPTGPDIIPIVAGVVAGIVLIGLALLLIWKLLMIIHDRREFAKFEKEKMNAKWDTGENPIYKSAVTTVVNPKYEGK
UniProt P13612, 34-1032 limits assumed: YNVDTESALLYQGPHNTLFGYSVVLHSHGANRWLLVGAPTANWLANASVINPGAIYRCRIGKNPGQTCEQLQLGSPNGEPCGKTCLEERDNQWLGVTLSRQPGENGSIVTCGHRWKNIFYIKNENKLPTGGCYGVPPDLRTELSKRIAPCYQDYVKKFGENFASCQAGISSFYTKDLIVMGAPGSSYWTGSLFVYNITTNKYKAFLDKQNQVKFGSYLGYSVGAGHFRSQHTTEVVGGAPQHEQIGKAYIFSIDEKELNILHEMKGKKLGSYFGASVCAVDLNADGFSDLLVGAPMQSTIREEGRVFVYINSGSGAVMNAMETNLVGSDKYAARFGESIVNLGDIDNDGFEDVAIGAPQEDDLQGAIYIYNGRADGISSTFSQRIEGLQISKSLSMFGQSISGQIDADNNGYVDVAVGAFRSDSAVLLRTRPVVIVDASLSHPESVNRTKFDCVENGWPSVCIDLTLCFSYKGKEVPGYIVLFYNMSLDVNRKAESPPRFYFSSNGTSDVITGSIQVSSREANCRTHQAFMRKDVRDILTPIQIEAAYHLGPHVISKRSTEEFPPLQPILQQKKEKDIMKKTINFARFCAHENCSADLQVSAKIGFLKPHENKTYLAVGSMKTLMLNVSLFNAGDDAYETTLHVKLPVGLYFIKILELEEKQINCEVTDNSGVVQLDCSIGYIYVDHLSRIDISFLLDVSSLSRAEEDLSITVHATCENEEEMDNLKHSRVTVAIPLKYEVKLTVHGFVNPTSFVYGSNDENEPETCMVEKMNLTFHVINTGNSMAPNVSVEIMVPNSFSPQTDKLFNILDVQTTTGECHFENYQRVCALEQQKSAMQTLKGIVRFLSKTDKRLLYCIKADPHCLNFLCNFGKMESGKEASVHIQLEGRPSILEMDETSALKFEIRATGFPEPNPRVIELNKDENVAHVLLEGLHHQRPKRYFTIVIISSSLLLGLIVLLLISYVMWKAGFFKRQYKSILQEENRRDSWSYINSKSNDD

These molecules were tested against VLA4 (Homo sapiens, UniProt P05556+P13612) (assay: Inhibition of VLA4-dependent adhesion of Ramos cells to BSA-CS1). Settings: BSA-CS1 coated wells, 2 mM MnCl2, 30 minutes at room temperature.
Type: cell-based

IC50 | Structure (SMILES)
> 10000 nM | CC(C)CCC(=O)N[C@@H](CC(=O)O)C(=O)NCC1CCCCC1
< 50 nM | CC[C@H](C)[C@H](NC(=O)Cc1ccc(NC(=O)Nc2ccccc2C)cc1)C(=O)N[C@@H](CC(=O)O)C(=O)N[C@H](C(N)=O)C(C)C
< 50 nM | Cc1ccccc1NC(=O)Nc1ccc(CC(=O)N[C@@H](CC(C)C)C(=O)N[C@@H](CC(=O)O)C(=O)N[C@H](C(=O)N2CCC[C@H]2C(=O)N[C@@H](CO)C(=O)N[C@H](C(=O)O)[C@@H](C)O)C(C)C)cc1
< 50 nM | CC[C@H](C)[C@H](NC(=O)Cc1ccc(NC(=O)Nc2ccccc2C)cc1)C(=O)N[C@@H](CC(=O)O)C(=O)N[C@H](C(N)=O)[C@@H](C)O
< 50 nM | CSCC[C@H](NC(=O)Cc1ccc(NC(=O)Nc2ccccc2C)cc1)C(=O)N[C@@H](CC(=O)O)C(=O)N[C@@H](Cc1c[nH]c2ccccc12)C(N)=O
< 50 nM | Cc1ccccc1NC(=O)Nc1ccc(CC(=O)N[C@@H](CCC(N)=O)C(=O)N[C@@H](CC(=O)O)C(=O)N[C@H](CO)C(N)=O)cc1
< 50 nM | CC[C@H](C)[C@H](NC(=O)[C@H](CC(=O)O)NC(=O)[C@H](CO)NC(=O)Cc1ccc(NC(=O)Nc2ccccc2C)cc1)C(N)=O
> 10000 nM | CC(C)C[C@H](NC(=O)Cc1ccccc1)C(=O)N[C@@H](CC(=O)O)C(=O)N1CCCCC1C(=O)NCC(=O)O (stereo partly drawn)
< 50 nM | CSCC[C@H](NC(=O)[C@H](CC(=O)O)NC(=O)[C@H](CO)NC(=O)Cc1ccc(NC(=O)Nc2ccccc2C)cc1)C(N)=O
< 50 nM | Cc1ccccc1NC(=O)Nc1ccc(CC(=O)N[C@@H](CO)C(=O)N[C@@H](CC(=O)O)C(=O)N[C@H](C(N)=O)C(C)C)cc1
< 50 nM | COc1nc(CC(=O)NC(CC(C)C)C(=O)NC(CC(=O)O)C(=O)NC(C(=O)N2CCCC2C(N)=O)C(C)C)ccc1NC(=O)Nc1ccccc1C (stereo not drawn)
< 50 nM | CC[C@H](C)[C@H](NC(=O)[C@H](CC(=O)O)NC(=O)[C@@H](NC(=O)Cc1ccc(NC(=O)Nc2ccccc2C)cc1)[C@@H](C)CC)C(N)=O
> 10000 nM | CC(C)[C@H](NC(=O)[C@H](CC(=O)O)NC(=O)C(CC1CCCCC1)NC(=O)c1cc2ccccc2cn1)C(=O)O (stereo partly drawn)
< 50 nM | CC[C@H](C)[C@H](NC(=O)Cc1ccc(NC(=O)Nc2ccccc2C)cc1)C(=O)N[C@@H](CC(=O)O)C(=O)N[C@@H](CC(C)C)C(N)=O
< 50 nM | CC[C@H](C)[C@H](NC(=O)Cc1ccc(NC(=O)Nc2ccccc2C)cc1)C(=O)N[C@@H](CC(=O)O)C(=O)N[C@@H](Cc1c[nH]c2ccccc12)C(N)=O
> 10000 nM | CNC(=O)C(C)(C)NC(=O)[C@H](CC(=O)O)NC(=O)[C@H](CC(C)C)NC(=O)c1ccc2ccccc2n1
< 50 nM | Cc1ccccc1NC(=O)Nc1ccc(CC(=O)N[C@@H](CC(C)C)C(=O)N[C@@H](CC(=O)O)C(=O)N[C@H](C(=O)N2CCC[C@H]2C(=O)N[C@@H](CO)C(=O)O)C(C)C)cc1
> 10000 nM | CCCC(NC(=O)Cc1ccccc1)C(=O)N[C@@H](CC(=O)O)C(=O)N[C@H](C(=O)NC)C(C)C (stereo partly drawn)
< 50 nM | Cc1ccccc1NC(=O)Nc1ccc(CC(=O)N[C@@H](CCC(N)=O)C(=O)N[C@@H](CC(=O)O)C(=O)N[C@H](CC(N)=O)C(N)=O)cc1

IC50 | Structure (SMILES)
< 50 nM | Cc1ccccc1NC(=O)Nc1ccc(CC(=O)N2CCC[C@H]2C(=O)N[C@@H](CC(=O)O)C(=O)N[C@H](CO)C(N)=O)cc1
< 50 nM | CSCC[C@H](NC(=O)Cc1ccc(NC(=O)Nc2ccccc2C)cc1)C(=O)N[C@@H](CCC(=O)O)C(=O)N[C@@H](CC(=O)O)C(N)=O
> 10000 nM | CC(C)C[C@H](NC(=O)c1cc2ccccc2cn1)C(=O)NC(Cc1nn[nH]n1)C(=O)N[C@H](C(=O)O)C(C)C (stereo partly drawn)
< 50 nM | COc1nc(CC(=O)N[C@@H](CC(C)C)C(=O)N[C@@H](CC(=O)O)C(=O)N[C@H](C(=O)N2CCC[C@H]2C(=O)O)C(C)C)ccc1NC(=O)Nc1ccccc1C
> 10000 nM | CC(C)[C@H](NC(=O)[C@H](CC(=O)O)NC(=O)C(C)(C)NC(=O)c1cc2ccccc2cn1)C(=O)O
< 50 nM | Cc1ccccc1NC(=O)Nc1ccc(CC(=O)N[C@@H](CCC(=O)O)C(=O)N[C@@H](CC(=O)O)C(=O)N[C@H](C(N)=O)C(C)C)cc1
> 10000 nM | COC(=O)[C@@H](NC(=O)[C@H](CC(=O)O)N1CCC(NC(=O)OCc2ccccc2)C1=O)C(C)C (stereo partly drawn)
< 50 nM | CC[C@H](C)[C@H](NC(=O)[C@H](CC(=O)O)NC(=O)[C@H](CC(C)C)NC(=O)Cc1ccc(NC(=O)Nc2ccccc2C)cc1)C(N)=O
< 50 nM | CC[C@H](C)[C@H](NC(=O)Cc1ccc(NC(=O)Nc2ccccc2C)cc1)C(=O)N[C@@H](CC(=O)O)C(=O)N[C@@H](CCSC)C(N)=O
< 50 nM | Cc1ccccc1NC(=O)Nc1ccc(CC(=O)N[C@H](C(=O)N[C@@H](CC(=O)O)C(=O)N[C@H](C(N)=O)[C@@H](C)O)[C@@H](C)O)cc1
> 10000 nM | CC(C)C[C@H](NC(=O)c1ccc2ccccc2n1)C(=O)N[C@@H](CC(=O)O)C(=O)N[C@H](C(N)=O)C(C)C
< 50 nM | CC[C@H](C)[C@H](NC(=O)Cc1ccc(NC(=O)Nc2ccccc2C)cc1)C(=O)N[C@@H](CC(=O)O)C(=O)N[C@H](CCC(=O)O)C(N)=O
< 50 nM | CC[C@H](C)[C@H](NC(=O)Cc1ccc(NC(=O)Nc2ccccc2C)cc1)C(=O)N[C@@H](CC(=O)O)C(=O)N[C@H](CC(N)=O)C(N)=O
< 50 nM | Cc1ccccc1NC(=O)Nc1ccc(CC(=O)N[C@@H](CO)C(=O)N[C@@H](CC(=O)O)C(=O)N[C@H](C(N)=O)[C@@H](C)O)cc1
< 50 nM | Cc1ccccc1NC(=O)Nc1ccc(CC(=O)N[C@@H](CO)C(=O)N[C@@H](CC(=O)O)C(=O)N[C@@H](CC(=O)O)C(N)=O)cc1
< 50 nM | CSCC[C@H](NC(=O)[C@H](CC(=O)O)NC(=O)[C@@H](NC(=O)Cc1ccc(NC(=O)Nc2ccccc2C)cc1)[C@@H](C)O)C(N)=O
> 10000 nM | CC(C)C[C@H](NC(=O)c1cc2ccccc2cn1)C(=O)NC(CC(=O)NO)C(=O)N[C@H](C(=O)O)C(C)C (stereo partly drawn)
< 50 nM | CC[C@H](C)[C@H](NC(=O)[C@H](CC(=O)O)NC(=O)[C@H](CCSC)NC(=O)Cc1ccc(NC(=O)Nc2ccccc2C)cc1)C(N)=O
< 50 nM | Cc1ccccc1NC(=O)Nc1ccc(CC(=O)N[C@@H](CCC(=O)O)C(=O)N[C@@H](CC(=O)O)C(=O)N[C@@H](Cc2c[nH]c3ccccc23)C(N)=O)cc1

Structure (SMILES) | IC50
Cc1cccc(NC(=O)Nc2ccc(CC(=O)N[C@@H](CC(C)C)C(=O)N[C@@H](CC(=O)O)C(=O)N[C@H](C(=O)N3CCC[C@H]3C(=O)O)C(C)C)cc2)n1 | < 50 nM
